Earlier results, collected in patent US5707615A, “Method of treating HIV infections with anti-viral formulations” (Merrell Pharmaceuticals Inc., priority 1997, dated 1998).

Tested on: influenza
Settings: cited from earlier work

OC[C@H]1OC(O)[C@@H](F)[C@@H](O)[C@@H]1O (stereo partly drawn) [2-deoxy-2-fluoro-D-mannose]
antiviral activity, influenza infected cells: inhibit antiviral activity against influenza infected cells by preventing the glycosylation of viral membrane protein
